We go through one molecule from ChEMBL document CHEMBL1135173, “Discovery of substituted 3,4-diphenyl-thiazoles as a novel class of monoamine transporter inhibitors through 3-D pharmacophore search using a new pharmacophore model derived from mazindol” (Bioorg Med Chem Lett, 2002).

Protein sequences, listed by entry. Tags and fused reporters are not part of them.
UniProt Q9WTR4, whole entry: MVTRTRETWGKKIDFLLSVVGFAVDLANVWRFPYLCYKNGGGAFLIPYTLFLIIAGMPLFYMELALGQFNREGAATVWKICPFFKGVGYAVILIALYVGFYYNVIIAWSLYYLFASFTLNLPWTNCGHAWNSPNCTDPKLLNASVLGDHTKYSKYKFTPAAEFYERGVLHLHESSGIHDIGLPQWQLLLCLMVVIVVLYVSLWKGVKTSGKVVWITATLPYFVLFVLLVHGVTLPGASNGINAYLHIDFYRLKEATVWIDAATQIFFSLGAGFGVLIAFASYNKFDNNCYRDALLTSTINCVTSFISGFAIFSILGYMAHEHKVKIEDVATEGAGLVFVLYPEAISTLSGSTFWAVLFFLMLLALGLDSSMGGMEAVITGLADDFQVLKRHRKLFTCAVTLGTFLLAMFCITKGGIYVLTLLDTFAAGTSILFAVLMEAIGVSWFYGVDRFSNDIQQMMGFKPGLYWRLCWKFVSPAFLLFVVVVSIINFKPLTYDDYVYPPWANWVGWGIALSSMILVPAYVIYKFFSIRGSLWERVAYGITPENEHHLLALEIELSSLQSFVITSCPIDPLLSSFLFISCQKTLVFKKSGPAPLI

For the test, the target named is Norepinephrine transporter (Rattus norvegicus, UniProt Q9WTR4). Description: Compound was tested for the inhibition of norepinephrine [3H]NE reuptake into rat cortical membranes. It counts as cell membranes, Membrane.

`COC(=O)[C@@H]1C2CCC(C[C@@H]1C(=O)Oc1ccccc1)N2C` (stereo partly specified): the Ki (commonly a measure of affinity in units of concentration, obtained from inhibition or displacement) was determined as 108 nM.
